# ChEMBL document CHEMBL1127403, “L-N6-(1-iminoethyl)lysine: a selective inhibitor of inducible nitric oxide synthase” (J Med Chem, 1994)
# The chains behind the UniProt entries cited, without tags or fusion partners.
# UniProt P29476, whole entry: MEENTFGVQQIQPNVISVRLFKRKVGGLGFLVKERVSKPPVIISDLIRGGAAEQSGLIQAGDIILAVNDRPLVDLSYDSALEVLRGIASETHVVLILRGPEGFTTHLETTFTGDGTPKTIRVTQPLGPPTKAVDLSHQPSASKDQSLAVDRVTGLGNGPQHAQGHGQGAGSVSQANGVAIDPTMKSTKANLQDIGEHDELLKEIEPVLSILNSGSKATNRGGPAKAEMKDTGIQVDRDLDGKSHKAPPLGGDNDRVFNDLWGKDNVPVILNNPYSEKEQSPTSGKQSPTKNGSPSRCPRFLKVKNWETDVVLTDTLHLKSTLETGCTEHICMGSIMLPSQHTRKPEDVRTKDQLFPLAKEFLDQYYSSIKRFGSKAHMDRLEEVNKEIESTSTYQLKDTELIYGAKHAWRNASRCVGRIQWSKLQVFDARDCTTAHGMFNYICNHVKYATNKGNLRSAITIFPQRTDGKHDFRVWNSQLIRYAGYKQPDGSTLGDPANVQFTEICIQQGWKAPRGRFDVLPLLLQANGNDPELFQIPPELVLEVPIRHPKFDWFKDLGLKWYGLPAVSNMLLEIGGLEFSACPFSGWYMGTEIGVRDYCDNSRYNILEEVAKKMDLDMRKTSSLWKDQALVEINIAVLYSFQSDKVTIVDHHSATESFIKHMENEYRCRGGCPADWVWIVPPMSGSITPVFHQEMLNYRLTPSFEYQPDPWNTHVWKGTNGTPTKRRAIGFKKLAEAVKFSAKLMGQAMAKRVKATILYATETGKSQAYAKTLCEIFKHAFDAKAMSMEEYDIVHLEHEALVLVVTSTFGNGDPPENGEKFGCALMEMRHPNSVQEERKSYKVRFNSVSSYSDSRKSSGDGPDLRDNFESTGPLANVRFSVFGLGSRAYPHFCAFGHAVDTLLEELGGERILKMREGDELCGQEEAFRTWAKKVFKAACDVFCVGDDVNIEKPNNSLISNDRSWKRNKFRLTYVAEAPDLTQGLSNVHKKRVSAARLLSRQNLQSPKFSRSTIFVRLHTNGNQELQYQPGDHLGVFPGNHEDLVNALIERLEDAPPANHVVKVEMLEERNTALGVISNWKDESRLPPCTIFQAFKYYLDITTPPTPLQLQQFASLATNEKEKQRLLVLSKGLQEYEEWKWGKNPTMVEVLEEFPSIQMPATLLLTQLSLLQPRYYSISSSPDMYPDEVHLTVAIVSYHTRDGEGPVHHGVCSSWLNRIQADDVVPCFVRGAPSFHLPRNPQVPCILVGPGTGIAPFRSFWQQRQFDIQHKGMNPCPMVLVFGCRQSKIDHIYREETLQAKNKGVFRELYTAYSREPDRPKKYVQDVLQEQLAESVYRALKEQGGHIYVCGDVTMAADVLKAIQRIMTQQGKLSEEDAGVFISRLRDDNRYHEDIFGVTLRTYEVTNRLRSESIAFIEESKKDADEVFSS
# Molecular target: Nitric oxide synthase 1 (Rattus norvegicus, UniProt P29476)
# Assay: Tested for inhibition of rat brain […] nitric oxide synthase
compound,measurement,value
CC(=N)NCCC[C@H](N)C(=O)O [L-NIO],pIC50,5.66

# pIC50: −log10 of the molar value.
